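Method: 48-hour compound exposure of cells in 96-well plates, five concentrations, linear interpolation of endpoints. GI50 marks 50% less growth. TGI denotes the concentration required for complete inhibition of growth.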
Legend:
Assay in all cases: NCI-60 cell line screen, 48 h
SF-295 CNS = test system: SF-295 CNS
OVCAR-4 ovarian = test system: OVCAR-4 ovarian
HCT-15 colon = test system: HCT-15 colon
M14 melanoma = test system: M14 melanoma
MDA-MB-231 breast = test system: MDA-MB-231 breast
CCRF-CEM leukemia = test system: CCRF-CEM leukemia
BT-549 breast = test system: BT-549 breast
SK-MEL-2 melanoma = test system: SK-MEL-2 melanoma
RXF 393 renal = test system: RXF 393 renal
NCI/ADR-RES ovarian = test system: NCI/ADR-RES ovarian
OVCAR-5 ovarian = test system: OVCAR-5 ovarian
SK-OV-3 ovarian = test system: SK-OV-3 ovarian
MCF7 breast = test system: MCF7 breast
A498 renal = test system: A498 renal
OVCAR-8 ovarian = test system: OVCAR-8 ovarian
SNB-75 CNS = test system: SNB-75 CNS
SNB-19 CNS = test system: SNB-19 CNS
SK-MEL-5 melanoma = test system: SK-MEL-5 melanoma
MOLT-4 leukemia = test system: MOLT-4 leukemia
UACC-257 melanoma = test system: UACC-257 melanoma
SR leukemia = test system: SR leukemia
A549 NSCLC = test system: A549 NSCLC
OVCAR-3 ovarian = test system: OVCAR-3 ovarian
MALME-3M melanoma = test system: MALME-3M melanoma
RPMI-8226 leukemia = test system: RPMI-8226 leukemia
KM12 colon = test system: KM12 colon
COLO 205 colon = test system: COLO 205 colon
SN12C renal = test system: SN12C renal
SF-539 CNS = test system: SF-539 CNS
EKVX NSCLC = test system: EKVX NSCLC
UO-31 renal = test system: UO-31 renal
ACHN renal = test system: ACHN renal
PC-3 prostate = test system: PC-3 prostate
HOP-92 NSCLC = test system: HOP-92 NSCLC
K-562 leukemia = test system: K-562 leukemia
MDA-MB-435 = test system: MDA-MB-435
LOX IMVI melanoma = test system: LOX IMVI melanoma
NCI-H460 lung = test system: NCI-H460 lung
HCT-116 colon = test system: HCT-116 colon
SW-620 colon = test system: SW-620 colon
T-47D breast = test system: T-47D breast
MDA-N = test system: MDA-N
786-0 renal = test system: 786-0 renal
IGROV1 ovarian = test system: IGROV1 ovarian
HL-60(TB) leukemia = test system: HL-60(TB) leukemia
CAKI-1 renal = test system: CAKI-1 renal
NCI-H322M lung = test system: NCI-H322M lung
NCI-H522 lung = test system: NCI-H522 lung
SK-MEL-28 melanoma = test system: SK-MEL-28 melanoma
HT29 colon = test system: HT29 colon
DU-145 prostate = test system: DU-145 prostate
UACC-62 melanoma = test system: UACC-62 melanoma
NCI-H23 lung = test system: NCI-H23 lung
HOP-62 NSCLC = test system: HOP-62 NSCLC
TK-10 renal = test system: TK-10 renal
HS 578T breast = test system: HS 578T breast
U251 CNS = test system: U251 CNS
SF-268 CNS = test system: SF-268 CNS

## COc1cccc(C[N+](C)(CCCl)CCCl)c1[N+](=O)[O-]
SF-295 CNS
  GI50: > 100 µM
  TGI: > 100 µM
OVCAR-4 ovarian
  GI50: > 100 µM
  TGI: > 100 µM
HCT-15 colon
  GI50: > 100 µM
  TGI: > 100 µM
M14 melanoma
  GI50: > 100 µM
  TGI: > 100 µM
MDA-MB-231 breast
  GI50: > 100 µM
  TGI: > 100 µM
CCRF-CEM leukemia
  GI50: > 100 µM
  TGI: > 100 µM
BT-549 breast
  GI50: > 100 µM
  TGI: > 100 µM
SK-MEL-2 melanoma
  GI50: > 100 µM
  TGI: > 100 µM
RXF 393 renal
  GI50: 64.6 µM
  TGI: > 100 µM
NCI/ADR-RES ovarian
  GI50: > 100 µM
  TGI: > 100 µM
OVCAR-5 ovarian
  GI50: > 100 µM
  TGI: > 100 µM
SK-OV-3 ovarian
  GI50: > 100 µM
  TGI: > 100 µM
MCF7 breast
  GI50: > 100 µM
  TGI: > 100 µM
A498 renal
  GI50: > 100 µM
  TGI: > 100 µM
OVCAR-8 ovarian
  GI50: > 100 µM
  TGI: > 100 µM
SNB-75 CNS
  GI50: 45.6 µM
  TGI: > 100 µM
SNB-19 CNS
  GI50: > 100 µM
  TGI: > 100 µM
SK-MEL-5 melanoma
  GI50: > 100 µM
  TGI: > 100 µM
MOLT-4 leukemia
  GI50: 85.1 µM
  TGI: > 100 µM
UACC-257 melanoma
  GI50: > 100 µM
  TGI: > 100 µM
SR leukemia
  GI50: 13.6 µM
  TGI: > 100 µM
A549 NSCLC
  GI50: > 100 µM
  TGI: > 100 µM
OVCAR-3 ovarian
  GI50: > 100 µM
  TGI: > 100 µM
MALME-3M melanoma
  GI50: > 100 µM
  TGI: > 100 µM
RPMI-8226 leukemia
  GI50: > 100 µM
  TGI: > 100 µM
KM12 colon
  GI50: > 100 µM
  TGI: > 100 µM
COLO 205 colon
  GI50: 72.4 µM
  TGI: > 100 µM
SN12C renal
  GI50: > 100 µM
  TGI: > 100 µM
SF-539 CNS
  GI50: > 100 µM
  TGI: > 100 µM
EKVX NSCLC
  GI50: > 100 µM
  TGI: > 100 µM
UO-31 renal
  GI50: > 100 µM
  TGI: > 100 µM
ACHN renal
  GI50: 40.1 µM
  TGI: > 100 µM
PC-3 prostate
  GI50: > 100 µM
  TGI: > 100 µM
HOP-92 NSCLC
  GI50: > 100 µM
  TGI: > 100 µM
K-562 leukemia
  GI50: > 100 µM
  TGI: > 100 µM
MDA-MB-435
  GI50: > 100 µM
  TGI: > 100 µM
LOX IMVI melanoma
  GI50: > 100 µM
  TGI: > 100 µM
NCI-H460 lung
  GI50: 80.5 µM
  TGI: > 100 µM
HCT-116 colon
  GI50: > 100 µM
  TGI: > 100 µM
SW-620 colon
  GI50: > 100 µM
  TGI: > 100 µM
T-47D breast
  GI50: 25.2 µM
  TGI: > 100 µM
MDA-N
  GI50: > 100 µM
  TGI: > 100 µM
786-0 renal
  GI50: > 100 µM
  TGI: > 100 µM
IGROV1 ovarian
  GI50: > 100 µM
  TGI: > 100 µM
HL-60(TB) leukemia
  GI50: > 100 µM
  TGI: > 100 µM
CAKI-1 renal
  GI50: 33.9 µM
  TGI: > 100 µM
NCI-H322M lung
  GI50: > 100 µM
  TGI: > 100 µM
NCI-H522 lung
  GI50: > 100 µM
  TGI: > 100 µM
SK-MEL-28 melanoma
  GI50: > 100 µM
  TGI: > 100 µM
HT29 colon
  GI50: > 100 µM
  TGI: > 100 µM
DU-145 prostate
  GI50: > 100 µM
  TGI: > 100 µM
UACC-62 melanoma
  GI50: > 100 µM
  TGI: > 100 µM
NCI-H23 lung
  GI50: > 100 µM
  TGI: > 100 µM
HOP-62 NSCLC
  GI50: > 100 µM
  TGI: > 100 µM
TK-10 renal
  GI50: > 100 µM
  TGI: > 100 µM
HS 578T breast
  GI50: > 100 µM
  TGI: > 100 µM
U251 CNS
  GI50: > 100 µM
  TGI: > 100 µM
SF-268 CNS
  GI50: > 100 µM
  TGI: > 100 µM

Source: PubChem BioAssay (NCI)
